## Binding of CDR-mutated scFvs to a peptide of the spike HR2 region

Source: Engelhart et al. 2022 (doi:10.1038/s41597-022-01779-4), MIT Lincoln Laboratory and A-Alpha Bio; data file from the FLAb repository.

All variants were tested on one target, the spike HR2 peptide PDVDLGDISGINAS (SARS-CoV-2).

Parent: Ab-14, a human scFv built as VH, a 15-residue (Gly4Ser)3 linker, VL. Only the CDRs of the heavy chain vary.
VH: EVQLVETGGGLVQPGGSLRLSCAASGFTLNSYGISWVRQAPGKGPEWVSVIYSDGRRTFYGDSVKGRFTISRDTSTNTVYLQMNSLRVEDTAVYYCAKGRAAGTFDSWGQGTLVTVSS
VL: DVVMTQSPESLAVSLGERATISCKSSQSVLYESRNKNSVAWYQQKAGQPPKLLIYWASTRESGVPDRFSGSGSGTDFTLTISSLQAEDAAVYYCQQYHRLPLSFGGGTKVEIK

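The parent was found by panning a naive human phage display library on the peptide. AAYL49 was designed without a model: most single CDR substitutions and a random sample of double and triple ones. The assay is AlphaSeq: two haploid yeast populations carry antibody and antigen on their surface. Pairs that bind mate more often; barcode pairs of the diploids are counted by sequencing. Scores were corrected for input abundance and mapped to Kd with protein pairs of known affinity run in the same pool. Each pool was mated in three replicate cultures.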

The parent's heavy chain CDRs are GFTLNSYGIS, VIYSDGRRTFYGDSVK, GRAAGTFDS; each variant's own CDRs replace them letter for letter. This list gathers variants with a substitution at T104 (VH, numbered from residue 1). Kd is apparent (estimated from mating counts) and averaged on the log scale over replicates with a signal. Smaller is tighter. A pair that was not seen in any replicate is written "nd"; this usually means weak binding, but a binder can also be missed. Three control strains display no target. For library AAYL49, 15% of the pairings with them gave a signal, with a median of 11 µM and one signal in twenty below 680 nM, so weak values seen in few replicates may be background. For each scFv, signals with the empty controls are counted beside the result. In this assay the parent's reference entry averaged 4.4 nM; its copy inside this library read 13 µM (one replicate of three).

* GFTLNSYGIS / VIYSDGRRTFYGDSVK / GRFAGAFDS -> nd (0 of 3 replicates; controls 0 of 9)
* GFTLNSYGIS / VIYSDGRRTEYGDSVK / GRAALAFDS -> 4.2 nM (3 of 3 replicates; controls 2 of 9)
* GFTLNSYGIS / VIYSDGRRTFYGDSVF / GRAAGRFDS -> 810 nM (3 of 3 replicates; controls 1 of 9)
* GFTPNSYGIS / VIYSDGARTFYGDSVK / GRAAGWFDS -> 49 µM (2 of 3 replicates; controls 7 of 9)
* GFTLNSYGIS / VIYSDGRRTDYGDSVK / GRAAGSFDC -> 21 µM (3 of 3 replicates; controls 6 of 9)
* GFTLNSYGIS / VVYSDGRRTFYGDSVF / GRAAGMFDS -> 3.3 µM (2 of 3 replicates; controls 1 of 9)
* GFTLYSYGIS / VIYSDGIRTFYGDSVK / GRAAGRFDS -> nd (0 of 3 replicates; controls 0 of 9)
* GFTQNSYGIS / VIYSDGRRTFYGDSVK / GRAAGMFDS -> nd (0 of 3 replicates; controls 4 of 9)
* GFTLNSYGIS / VIYSVGRRTFYGDSVK / GRAAGQFDS -> 30 µM (2 of 3 replicates; controls 0 of 9)
* GFTLNSYGIS / VIYSDGRRTFYQDSVK / GRAAGSFDS -> 140 nM (3 of 3 replicates; controls 2 of 9)
* FFTLNVYGIS / VIYSDGRRTFYGDSVK / GRAAGWFDS -> 60 µM (1 of 3 replicates; controls 2 of 9)
* CFTLNSYGIS / VIYSDGRRTFYGDSVR / GRAAGVFDS -> 41 µM (1 of 3 replicates; controls 1 of 9)
* GFTRNSYGIS / VIYSDGRRTFYGSSVK / GRAAGQFDS -> nd (0 of 3 replicates; controls 0 of 9)
* GFTLNSYGIS / VIYSDGIRTFYGDWVK / GRAAGKFDS -> 4.0 µM (1 of 3 replicates; controls 0 of 9)
* GFTLNSYGIS / VNYSDGRRTFYNDSVK / GRAAGGFDS -> nd (0 of 3 replicates; controls 4 of 9)
* GFTLDSMGIS / VIYSDGRRTFYGDSVK / GRAAGMFDS -> 2.9 µM (1 of 3 replicates; controls 0 of 9)
* AFTLNSYGIS / VIYSDGRRTTYGDSVK / GRAAGIFDS -> nd (0 of 3 replicates; controls 1 of 9)
* GFTLNSYGIS / VIYSQGRRTFYKDSVK / GRAAGNFDS -> 58 µM (3 of 3 replicates; controls 4 of 9)
* GFTLNSYGIS / VIYSDGRRTSYGDWVK / GRAAGQFDS -> nd (0 of 3 replicates; controls 0 of 9)
* GFTLNSYMIS / VIYSDGRRTFYGDSVW / GRAAGHFDS -> nd (0 of 3 replicates; controls 0 of 9)
* GFTLNSYGIS / VIHSDGRRTFYGDSVK / GRAAIKFDS -> 2.1 µM (1 of 3 replicates; controls 0 of 9)
* GFTLNSYGIS / VIYSDGRRTLYGDSVK / GRAAGDFDS -> nd (0 of 3 replicates; controls 1 of 9)
* GFTLNSYGIS / VIYSDGRRTSYGDSVK / ARAAGCFDS -> nd (0 of 3 replicates; controls 0 of 9)
* GFTLNSYGIS / VIYSDGRRTFYYGSVK / GRAAGSFDS -> 88 µM (2 of 3 replicates; controls 4 of 9)
* GMTLKSYGIS / VIYSDGRRTFYGDSVK / GRAAGSFDS -> 130 nM (3 of 3 replicates; controls 1 of 9)
* GFTLNSYGIS / VIYSDGKRTFYGDSVL / GRAAGMFDS -> 1.1 mM (1 of 3 replicates; controls 4 of 9)
* GKTLNSYGIS / VIYSDGRRTFYMDSVK / GRAAGSFDS -> 300 µM (1 of 3 replicates; controls 1 of 9)
* GFTLNSYGTS / VIYSDGRRTFYGDSVK / GRAWGQFDS -> nd (0 of 3 replicates; controls 0 of 9)
* GFTANSYGIS / VIYSDGRRTFYGDSVK / GRAATVFDS -> nd (0 of 3 replicates; controls 1 of 9)
* GFTLNSYGIS / VIYSDGRRTPYGDSVK / GTAAGKFDS -> nd (0 of 3 replicates; controls 0 of 9)
* GFTLNTYGIS / VIYSDGRRTFYGDSVK / GRAAGVWDS -> 3.1 nM (3 of 3 replicates; controls 0 of 9)
* GFTLNSYGIS / VIYSDGRRTFYGDKVK / GRAAGFFDS -> 7.8 nM (3 of 3 replicates; controls 0 of 9)
* GFTLNSYPIS / VIDSDGRRTFYGDSVK / GRAAGAFDS -> nd (0 of 3 replicates; controls 5 of 9)
* GFTMNSYGID / VIYSDGRRTFYGDSVK / GRAAGEFDS -> nd (0 of 3 replicates; controls 0 of 9)
* GFWLNSYGIS / VIYSDGRRTFYGDSVK / GVAAGYFDS -> 1.0 µM (3 of 3 replicates; controls 0 of 9)
* GFTLNSYGIS / VIYSDGRRTFYGDSVK / GRASGCFDS -> nd (0 of 3 replicates; controls 0 of 9)
* GFTLNSYGIS / VIGSDGRRTFYGDDVK / GRAAGPFDS -> nd (0 of 3 replicates; controls 0 of 9)
* GFTLNSYGIS / VIYSDGRRTFCGDSVK / GRRAGQFDS -> 2.6 µM (2 of 3 replicates; controls 1 of 9)

The first 6 entries again:

{"CDR-H1": "GFTLNSYGIS", "CDR-H2": "VIYSDGRRTFYGDSVK", "CDR-H3": "GRFAGAFDS", "apparent Kd": "nd", "replicates with signal": "0 of 3", "control signals": "0 of 9"}
{"CDR-H1": "GFTLNSYGIS", "CDR-H2": "VIYSDGRRTEYGDSVK", "CDR-H3": "GRAALAFDS", "apparent Kd": "4.2 nM", "replicates with signal": "3 of 3", "control signals": "2 of 9"}
{"CDR-H1": "GFTLNSYGIS", "CDR-H2": "VIYSDGRRTFYGDSVF", "CDR-H3": "GRAAGRFDS", "apparent Kd": "810 nM", "replicates with signal": "3 of 3", "control signals": "1 of 9"}
{"CDR-H1": "GFTPNSYGIS", "CDR-H2": "VIYSDGARTFYGDSVK", "CDR-H3": "GRAAGWFDS", "apparent Kd": "49 µM", "replicates with signal": "2 of 3", "control signals": "7 of 9"}
{"CDR-H1": "GFTLNSYGIS", "CDR-H2": "VIYSDGRRTDYGDSVK", "CDR-H3": "GRAAGSFDC", "apparent Kd": "21 µM", "replicates with signal": "3 of 3", "control signals": "6 of 9"}
{"CDR-H1": "GFTLNSYGIS", "CDR-H2": "VVYSDGRRTFYGDSVF", "CDR-H3": "GRAAGMFDS", "apparent Kd": "3.3 µM", "replicates with signal": "2 of 3", "control signals": "1 of 9"}